Binding of CDR-mutated scFvs to a peptide of the spike HR2 region

The target is the same throughout: PDVDLGDISGINAS, from the HR2 region of SARS-CoV-2 spike.

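The starting antibody came from a phage panning campaign against this peptide. This is the validation round: designs drawn from the data on random variants, tested in the same kind of assay. Group labels follow the data file (Ctrl: baseline library sampled from a position-specific scoring matrix, with some repeated check sequences; En: ensemble of fine-tuned language models; GP: Gaussian process model; HC: hill climbing; Gen: genetic algorithm; Gibbs: Gibbs sampling; a sequence that several methods proposed may carry one label only). AlphaSeq pools MATa yeast showing the antibodies with MATalpha yeast showing the peptide. Pairs that bind mate more often; barcode pairs of the diploids are counted by sequencing. Read counts were normalised to the haploid input and turned into Kd by a linear fit to BCL2-family pairs of known affinity, for each replicate. The assay was run in six technical replicates.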

Parent scFv Ab-14: VH joined to VL by a (GGGGS)3 linker. Changes lie in the light chain CDRs alone.
VH: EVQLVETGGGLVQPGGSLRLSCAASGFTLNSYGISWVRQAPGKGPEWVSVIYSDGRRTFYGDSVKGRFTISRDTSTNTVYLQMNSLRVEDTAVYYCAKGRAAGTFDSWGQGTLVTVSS
VL: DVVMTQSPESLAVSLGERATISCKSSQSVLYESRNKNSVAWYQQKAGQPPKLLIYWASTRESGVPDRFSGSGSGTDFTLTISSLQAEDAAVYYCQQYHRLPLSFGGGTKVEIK

The parent's light chain CDRs are KSSQSVLYESRNKNSVA, WASTRES, QQYHRLPLS; each variant's own CDRs replace them letter for letter. Values are log10 of the apparent Kd in nM; lower means stronger binding. Replicates are averaged; those with no signal do not enter the mean. "nd" means that the variant was in the library but no mating with the target was seen in any replicate; the authors take this as a sign of poor binding, and no number exists. Three control strains display no target. For all light chain designs, 4% of the pairings with them gave a signal, with a median of 2.64 and one signal in twenty below 1.59, so weak values seen in few replicates may be background. Also given: how often the same scFv was detected with the empty control strains. The authors' rule: three or more of the six replicates give a measured affinity, fewer mean a poor binder. Values of this round are not directly comparable with the first-round values of the same sequences.

KVSEFMRGLMQKTDSIA | DNQTRNN | QQYDRLPLS [En_Gen]: 1.26 (6 of 6 replicates; controls 3 of 18).
KISQSVDYESRNKNSVA | NASTRES | QQYHRLPLS [GP_Gen]: -0.29 (6 of 6 replicates; controls 0 of 18).
KLSPSVEYESRLKNSVA | NASQRLE | QQYHRLPLS [GP_Gibbs]: 0.16 (6 of 6 replicates; controls 1 of 18).
KFEWSNPYESRNKNSVA | NASTRES | QQYWRLPLS [GP_Gibbs]: 0.51 (6 of 6 replicates; controls 0 of 18).
KFSQWVEYESRTKNSVA | NASTRES | QQYHRLPLS [GP_HC]: 0.35 (6 of 6 replicates; controls 2 of 18).
KSSQTVYYESRFKNFVA | WASTRES | QQYHRLPLS [Ctrl]: nd (0 of 6 replicates; controls 0 of 18).
TLQDWGTYGMENGNRIA | ERSKLEW | QQYGRLPLS [En_Gibbs]: 1.26 (6 of 6 replicates; controls 1 of 18).
KVDFLGDMESRNKNAVA | SASTRES | QQYHRLPLS [GP_Gibbs]: -0.08 (6 of 6 replicates; controls 0 of 18).
KYSQSVFYESRNKNSIA | NASTREM | QQYHRLPLS [Ctrl]: 0.05 (6 of 6 replicates; controls 1 of 18).
KISQLVNFEGKNKNSVA | QMSTREV | QQYDRLPLS [En_HC]: 0.19 (6 of 6 replicates; controls 2 of 18).
ALSQSMDMTSHNVNSVA | DLTTRGN | QQYHRLPLS [En_HC]: -0.26 (6 of 6 replicates; controls 2 of 18).
KSSQSWLYESRNKNSVA | GASQREN | QQYHRLPLS [GP_HC]: 0.69 (5 of 6 replicates; controls 1 of 18).
KSSQSVWYESRNKNSHA | QASTRES | QRYHRLPLS [Ctrl]: nd (0 of 6 replicates; controls 0 of 18).
KLSMMVDYGDRNKNSVA | SASTRES | QQYHRLPLS [GP_Gibbs]: -0.27 (6 of 6 replicates; controls 0 of 18).
KLGQSTVIESFNKNNVA | EMSTRES | QSYDRLPLS [En_HC]: 1.45 (6 of 6 replicates; controls 0 of 18).
MISQLMNMGTFAINSVA | QAEIRNA | QQYDRLPLQ [En_Gen]: 1.56 (6 of 6 replicates; controls 0 of 18).
KHSQSVLMESRNKNSVA | EASTRES | QQYHRLPLS [GP_Gen]: 2.29 (3 of 6 replicates; controls 1 of 18).
TISMVMNTLQRHGNNVA | DLAERED | QQYFRLPLS [En_Gen]: 0.42 (6 of 6 replicates; controls 0 of 18).
RLTEHTSERAYADASVA | DASTRND | QQYHRLPLF [En_Gibbs]: 0.64 (6 of 6 replicates; controls 4 of 18).
KWSQSVLYESRNKNSVA | WADTRES | QQYHRLPLS [Ctrl]: 2.33 (4 of 6 replicates; controls 2 of 18).
KLSQSELYESRMKNSVA | NASTRCS | QQYHRLPLS [GP_Gen]: 0.05 (6 of 6 replicates; controls 0 of 18).
KLQQSVLYESRNKNSVA | NASTRMS | QDYHRLPLS [GP_Gen]: -0.15 (6 of 6 replicates; controls 2 of 18).
KLSMTTEMEHTNRNSVA | ELVTRIS | QQYNRLPLS [En_Gen]: 0.58 (6 of 6 replicates; controls 1 of 18).
RLFNKMGQLQNIAQNVA | NATTVIN | QSYMRLPLT [En_Gibbs]: 0.83 (6 of 6 replicates; controls 1 of 18).
KLLQTVGNGRYNRNNVA | HMTMRED | QQYFRLPLS [En_HC]: 2.09 (5 of 6 replicates; controls 0 of 18).
KVSQSVLYEWRNKNSVA | DASTREV | QQYHRLPLS [GP_HC]: -0.07 (6 of 6 replicates; controls 0 of 18).
KLVGVDDNDNKPMSAIA | DVNTLDN | QQYGRLPLD [En_Gibbs]: 1.57 (4 of 6 replicates; controls 0 of 18).
KYSQSVLYESRNKNSVA | WASTRES | QQYHRLPLS [Ctrl]: 2.04 (4 of 6 replicates; controls 1 of 18).
KIGMVLNQLLHQKNNVA | DLVERED | QQYFRLPLS [En_Gen]: 0.22 (6 of 6 replicates; controls 0 of 18).
HFAWPWQSGYESKQNVA | NASTVMT | QHYNRLPLS [En_Gibbs]: 0.64 (6 of 6 replicates; controls 1 of 18).
TIQQMMSLFSQTINNVA | EVSTREN | QQYDRLPLS [En_Gen]: 1.01 (5 of 6 replicates; controls 0 of 18).
MFSQSVMYGSFMRNSVA | QTSTRES | QQYDRMPLS [En_HC]: 1.21 (6 of 6 replicates; controls 1 of 18).
KLGMYVWLESRNKNSVA | QASTREW | QQYHRLPLS [GP_Gibbs]: 1.95 (5 of 6 replicates; controls 0 of 18).

Extract of 4 entries:

KLGQSTVIESFNKNNVA | EMSTRES | QSYDRLPLS [En_HC]: 1.45 (6 of 6 replicates; controls 0 of 18).
KLSPSVEYESRLKNSVA | NASQRLE | QQYHRLPLS [GP_Gibbs]: 0.16 (6 of 6 replicates; controls 1 of 18).
ALSQSMDMTSHNVNSVA | DLTTRGN | QQYHRLPLS [En_HC]: -0.26 (6 of 6 replicates; controls 2 of 18).
KVSQSVLYEWRNKNSVA | DASTREV | QQYHRLPLS [GP_HC]: -0.07 (6 of 6 replicates; controls 0 of 18).

The measurements come from Li et al. 2023 (doi:10.1038/s41467-023-39022-2) through the FLAb antibody collection.